{
  "source": "patent US20210300873A1",
  "about": "(Clear Creek Bio, Inc., priority 2020, published 2021)",
  "experiment": "Stability of the polymorphic form under vacuum drying",
  "assay_type": "physicochemical",
  "conditions": "vacuum drying condition of 50° C. for 18 h",
  "note": "Where a name gives a salt, the structure may show the parent alone.",
  "data": [
    {"smiles": "Cc1c(-c2ccc(-c3ccccc3F)cc2)nc2ccc(F)cc2c1C(=O)O", "note": "[Pattern C, 6-Flouro-2-(2′-fluoro-1,1′-biphenyl-4-yl)-3-methyl-4-quinolinecarboxylic acid sodium salt]", "values": [
      {"measurement": "Change of polymorphic form on drying (in words)", "result": "remains the same"}
    ]}
  ]
}
